# From article PMC3678023 (Journal of Molecular Biology, 2013)
# Amino acid sequences for entries named in this document (tags omitted).
# UniProt P31652, whole entry: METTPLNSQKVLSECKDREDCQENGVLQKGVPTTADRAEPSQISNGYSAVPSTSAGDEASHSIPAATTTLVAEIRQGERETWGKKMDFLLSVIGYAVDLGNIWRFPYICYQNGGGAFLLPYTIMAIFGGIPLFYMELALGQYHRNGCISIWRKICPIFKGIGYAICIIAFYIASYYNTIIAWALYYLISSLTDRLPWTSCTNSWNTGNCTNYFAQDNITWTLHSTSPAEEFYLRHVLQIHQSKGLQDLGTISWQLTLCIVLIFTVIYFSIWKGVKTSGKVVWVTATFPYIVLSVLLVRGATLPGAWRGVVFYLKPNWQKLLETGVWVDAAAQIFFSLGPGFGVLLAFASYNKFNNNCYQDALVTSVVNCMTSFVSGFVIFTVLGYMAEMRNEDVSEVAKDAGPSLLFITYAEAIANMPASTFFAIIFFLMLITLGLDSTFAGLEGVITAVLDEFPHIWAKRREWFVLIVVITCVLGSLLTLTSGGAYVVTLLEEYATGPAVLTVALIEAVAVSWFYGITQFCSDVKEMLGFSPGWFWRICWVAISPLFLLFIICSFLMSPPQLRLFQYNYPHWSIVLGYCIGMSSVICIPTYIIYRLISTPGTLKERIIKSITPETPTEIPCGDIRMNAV
# Legend:
# [1] = molecular target: wild-type SERT (Rattus norvegicus, UniProt P31652); test: biochemical
# [2] = system: thermostabilised SERT mutants SAH6 and SAH7; test: Competition binding, statements covering both thermostabilised mutants; set-up: species or system rat; conditions: over SAH6 and SAH7
SMILES,Ki [1] [nM],Lower affinity versus wild-type transporter [2]
COC(=O)[C@H]1[C@@H](OC(=O)c2ccccc2)C[C@@H]2CC[C@H]1N2C [cocaine],1560 ± 21,
CN(C)CCCN1c2ccccc2CCc2ccccc21 [imipramine],,up to 90 fold
Fc1ccc([C@@H]2CCNC[C@H]2COc2ccc3c(c2)OCO3)cc1 [paroxetine],0.01 ± 0.02,up to 90 fold
